Source: patent US10098878B2, “HIF-2α inhibitors for treating iron overload disorders” (The Board of Regents of the University of Texas System, priority 2014, dated 2018)

System: 786-O-Hif-Luc cells
Assay: Luciferase Assay
Assay type: cell-based
Settings: 24 h, read-out: Luciferase EC50

## N#Cc1ccc(Oc2cc(F)cc(F)c2)c2c1[C@H](O)C(F)(F)C2 [Compound 4, (S)-7-(3,5-Difluorophenoxy)-2,2-difluoro-3-hydroxy-2,3-dihydro-1H-indene-4-carbonitrile]
  EC50: 74 nM
